Test: Nontoxic (NT; LD50>2,000mg/kg vs. all others)
Conditions: rat; in vivo; po

For `O=[N+]([O-])c1cc([N+](=O)[O-])c2no[n+]([O-])c2c1`, the nontoxic was “FALSE (not_nontoxic)”.

Test: rat acute oral toxicity
Conditions: in vivo

Going from `Cc1c([N+](=O)[O-])cc([N+](=O)[O-])cc1[N+](=O)[O-]` to `Cc1ccc([N+](=O)[O-])cc1[N+](=O)[O-]`, the LD50 falls from 607 mg/kg to 269 mg/kg (2.3-fold).

Going from `CCOP(OCC)OCC` to `CCOP(O)OCC`, the LD50 rises from 1840 mg/kg to 3500 mg/kg (1.9-fold).

Compared with `[C-]#N.[K+]`, `O=[N+]([O-])N1CN([N+](=O)[O-])CN([N+](=O)[O-])C1` is 20-fold higher in LD50: 5 mg/kg for the first, 100 mg/kg for the second.

Going from `ClCCOP(OCCCl)OCCCl` to `O=[N+]([O-])OCCOCCO[N+](=O)[O-]`, the LD50 rises from 100 mg/kg to 753 mg/kg (7.5-fold).

`CCC(C)(OO)OOC(C)(CC)OO` (centres undefined) and `O=[N+]([O-])OCCO[N+](=O)[O-]` are within 1.5-fold of each other in LD50: 484 mg/kg for the first, 460 mg/kg for the second.

Going from `CCOP(=S)(CC)Oc1cc(Cl)c(Cl)cc1Cl` (centres undefined) to `Cc1cc([N+](=O)[O-])ccc1[N+](=O)[O-]`, the LD50 rises from 15 mg/kg to 517 mg/kg (34-fold).

Compared with `O=[N+]([O-])N1CN([N+](=O)[O-])CN([N+](=O)[O-])CN([N+](=O)[O-])C1`, `COP(OC)OC` is 3.4-fold lower in LD50: 5500 mg/kg for the first, 1600 mg/kg for the second.

Test: GHS categories as the set defines them, by LD50: 1 up to 5, 2 up to 50, 3 up to 300, 4 up to 2000, 5 above 2000 mg/kg
Conditions: rat; in vivo; po

`O=[N+]([O-])c1cc([N+](=O)[O-])c(Nc2nc(Nc3c([N+](=O)[O-])cc([N+](=O)[O-])cc3[N+](=O)[O-])c([N+](=O)[O-])cc2[N+](=O)[O-])c([N+](=O)[O-])c1` and `CC(=O)N1CN([N+](=O)[O-])CN([N+](=O)[O-])CN([N+](=O)[O-])C1` are the same in GHS category: 5 for the first, 5 for the second.

`COP(=S)(OC)c1ccccc1` and `CCOP(=S)(OCC)c1ccccc1` are the same in GHS category: 4 for the first, 4 for the second.

`O=C(O)C1(O)c2ccccc2-c2ccccc21` and `O=c1[nH]c2ccccc2n1CCCN1CCC(n2c(=O)[nH]c3ccccc32)CC1` are the same in GHS category: 5 for the first, 5 for the second.

`O=c1nc([N+](=O)[O-])[nH][nH]1` and `O=[N+]([O-])OC[C@H]1O[C@H](O)[C@H](O[N+](=O)[O-])[C@@H](O[N+](=O)[O-])[C@@H]1O` are the same in GHS category: 5 for the first, 5 for the second.

In the case of `CCC1(C)OOC(C)(CC)OOC(C)(CC)OO1` (centres undefined), the GHS category is reported as 5.

From the CATMoS acute toxicity set (Mansouri et al. 2021)
